Earlier results on one substance are cited in US20020064550A1, “Edible candy compositions and methods of using same” (AkPharma, Inc., priority 2000, published 2002).

For this series the following is noted: water.

In the case of “1,2,3-propanetriol, mono(dihydrogen phosphate) calcium salt (1:1) [calcium glycerophosphate]”, the solubility entry is “about 1 gram in about 50 mL of water”.
